# Laboratory results taken from patent publication US7122651B1, “Nucleic acid molecules encoding opioid growth factor receptors” (priority 1998, dated 2006).
# Target: T1, nuclear homogenates of human pancreatic tumor cells (PANC-1) (Homo sapiens, UniProt Q9NZT2)
# T1 construct: host or cells: PANC-1; nuclear (P1) homogenates, and P2, P3 and S3 fractions in the fractionation study
# T1 sequence (Q9NZT2 1-677): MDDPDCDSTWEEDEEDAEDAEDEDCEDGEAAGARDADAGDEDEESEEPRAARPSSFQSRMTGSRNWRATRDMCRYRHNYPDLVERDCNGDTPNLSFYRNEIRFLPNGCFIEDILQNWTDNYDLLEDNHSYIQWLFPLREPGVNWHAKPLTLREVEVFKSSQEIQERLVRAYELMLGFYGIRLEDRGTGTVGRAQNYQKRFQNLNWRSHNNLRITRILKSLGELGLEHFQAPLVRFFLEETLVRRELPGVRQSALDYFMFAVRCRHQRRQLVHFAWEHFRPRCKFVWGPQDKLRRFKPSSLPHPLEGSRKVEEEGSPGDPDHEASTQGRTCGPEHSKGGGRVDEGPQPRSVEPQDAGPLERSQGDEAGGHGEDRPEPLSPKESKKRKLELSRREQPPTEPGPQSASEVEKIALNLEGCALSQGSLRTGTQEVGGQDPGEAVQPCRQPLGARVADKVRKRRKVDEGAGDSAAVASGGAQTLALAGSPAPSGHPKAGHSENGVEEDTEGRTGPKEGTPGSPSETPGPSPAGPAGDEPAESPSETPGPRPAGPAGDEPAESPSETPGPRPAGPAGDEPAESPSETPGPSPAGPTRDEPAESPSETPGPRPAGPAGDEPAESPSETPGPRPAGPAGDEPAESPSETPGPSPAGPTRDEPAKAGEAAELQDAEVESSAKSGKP
# Experiment: Competition for binding of [^3H]-[Met^5]-enkephalin in PANC-1 nuclear homogenates
# Details: competition with [^3H]-[Met^5]-enkephalin; at least 2 independent assays
substance,measurement,value
Dynorphin A1-8,IC50/Kd,>10^−4
